For orientation: IC50 means the concentration needed to halve the response being measured.

Chains of the proteins cited; added tags and fusions are not shown.
UniProt P16257, whole entry: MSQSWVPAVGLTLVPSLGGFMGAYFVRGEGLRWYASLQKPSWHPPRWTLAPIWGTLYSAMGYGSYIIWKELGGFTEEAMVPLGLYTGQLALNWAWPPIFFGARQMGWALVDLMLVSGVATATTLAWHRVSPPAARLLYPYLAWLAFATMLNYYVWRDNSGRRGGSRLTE

Among the data in patent US6476056B2, “Heterocycle substituted aryloxyaniline derivatives and their use as MDR ligands” (Taisho Pharmaceutical Co., Ltd., priority 1997, dated 2002) are IC50 values, retold here.

The test has as its target MDR (Rattus norvegicus, UniProt P16257). As to the kind of experiment: MDR receptor binding assay ([3H]PK11195 displacement). The following applies: read-out: MDR IC50; 50% inhibition of [3H]PK11195 (2 nM) binding; crude mitochondria fraction from rat cerebral cortex; 4° C., 90 minutes.

Consider `COc1ccccc1CN(C(C)=O)c1ccc(C)cc1Oc1ccccc1`, for which the 50% inhibitory concentration (IC50) turned out to be 0.87 nM.
